Molecular target: T1, serotonin transporter (Rattus norvegicus, UniProt P31652)
T1 construct: frontal cortical membranes prepared from male Sprague-Dawley rats were incubated with ^3H-paroxetine; from tissue; host or cells: frontal cortex of male Sprague-Dawley rats
Assay: Serotonin transporter affinity, 3H-paroxetine binding to frontal cortical membranes
Parameters: species or system male Sprague-Dawley rats
Details: 3H-paroxetine 0.1 nM, read-out: ST (Kj, nM,)

Chains of the proteins cited; added tags and fusions are not shown.
UniProt P31652, whole entry: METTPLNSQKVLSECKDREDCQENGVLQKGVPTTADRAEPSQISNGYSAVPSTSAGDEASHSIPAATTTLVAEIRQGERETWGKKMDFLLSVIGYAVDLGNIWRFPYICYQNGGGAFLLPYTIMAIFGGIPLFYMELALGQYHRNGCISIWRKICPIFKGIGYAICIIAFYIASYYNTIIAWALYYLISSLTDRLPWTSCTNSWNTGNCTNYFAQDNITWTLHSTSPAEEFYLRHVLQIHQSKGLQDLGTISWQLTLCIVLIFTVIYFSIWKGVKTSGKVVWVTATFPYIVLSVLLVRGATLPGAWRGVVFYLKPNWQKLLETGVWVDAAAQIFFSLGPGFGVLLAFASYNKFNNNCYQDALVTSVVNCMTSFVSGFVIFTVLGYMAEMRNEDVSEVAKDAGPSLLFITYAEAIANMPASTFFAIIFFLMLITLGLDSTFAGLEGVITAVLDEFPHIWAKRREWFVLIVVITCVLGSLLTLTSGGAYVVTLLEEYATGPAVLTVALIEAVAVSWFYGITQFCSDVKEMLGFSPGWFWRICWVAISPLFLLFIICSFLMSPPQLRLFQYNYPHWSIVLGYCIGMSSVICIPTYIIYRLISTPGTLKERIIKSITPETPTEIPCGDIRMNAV

Compound | Ki
CCn1cc([C@H]2CC[C@@H](N3CCN(c4cccc5[nH]ccc45)CC3)CC2)c2cc(C#N)ccc21 [Example 13a, 1-Ethyl-3-{(1,4-cis)-4-[4-(1H-indol-4-yl)-piperazin-1-yl]-cyclohexyl}-1H-indole-5-carbonitrile] | 8.9 nM
Fc1ccc2[nH]cc([C@H]3CC[C@H](N4CCN(c5cccc6cccnc56)CC4)CC3)c2c1 [Example 27b, 8-{4-[(1,4-trans)-4-(5-Fluoro-1H-indol-3-yl)-cyclohexyl] -piperazin-1-yl}-quinoline] | 28 nM
Fc1ccc2[nH]cc([C@H]3CC[C@@H](N4CCN(c5cccc6cccnc56)CC4)CC3)c2c1 [Example 27a, 8-{4-[(1,4-cis)-4-(5-Fluoro-1H-indol-3-yl)-cyclohexyl] -piperazin-1-yl}-quinoline] | 8.6 nM
CCn1cc([C@H]2CC[C@H](N3CCN(c4cccc5[nH]ccc45)CC3)CC2)c2cc(C#N)ccc21 [Example 13b, 1-Ethyl-3-{(1,4-trans)-4-[4-(1H-indol-4-yl)-piperazin-1-yl]-cyclohexyl}-1H-indole-5-carbonitrile] | 40 nM
Cn1cc([C@H]2CC[C@@H](N3CCN(c4cccc5[nH]ccc45)CC3)CC2)c2cc(C#N)ccc21 [Example 12a, 3-{(1,4-cis)-4-[4-(1H-indol-4-yl)-piperazin-1-yl]-cyclohexyl}-1-methyl-1H-indole-5-carbonitrile] | 0.76 nM
CCCn1cc([C@H]2CC[C@@H](N3CCN(c4cccc5[nH]ccc45)CC3)CC2)c2cc(C#N)ccc21 [Example 14a, 3-{(1,4-cis)-4-[4-(1H-indol-4-yl)-piperazin-1-yl]-cyclohexyl}-1-propyl-1H-indole-5-carbonitrile] | 17 nM
CCCn1cc([C@H]2CC[C@H](N3CCN(c4cccc5[nH]ccc45)CC3)CC2)c2cc(C#N)ccc21 [Example 14b, 3-{(1,4-trans)-4-[4-(1H-indol-4-yl)-piperazin-1-yl]-cyclohexyl}-1-propyl-1H-indole-5-carbonitrile] | 40 nM
Fc1ccc2[nH]cc([C@H]3CC[C@H](N4CCN(c5cccc6[nH]ccc56)CC4)CC3)c2c1 [Example 3b, 5-Fluoro-3-[trans-4-[4-(1H-indol-4-yl)-1-piperazinyl]cyclohexyl]-1H-indole] | 10.1 nM

Source: EP1147083B1, “ARYLPIPERAZINYL-CYCLOHEXYL INDOLE DERIVATIVES FOR THE TREATMENT OF DEPRESSION” (Wyeth, priority 1999, dated 2000)
